Experimental data: patent publication US9546153B2, “Bicyclic heterocycle substituted pyridyl compounds useful as kinase modulators” (BRISTOL-MYERS SQUIBB COMPANY, priority 2012, dated 2017)
pIC50: −log10 of the molar value.

Chains of the proteins cited; added tags and fusions are not shown.
UniProt Q9NWZ3, whole entry, species assumed: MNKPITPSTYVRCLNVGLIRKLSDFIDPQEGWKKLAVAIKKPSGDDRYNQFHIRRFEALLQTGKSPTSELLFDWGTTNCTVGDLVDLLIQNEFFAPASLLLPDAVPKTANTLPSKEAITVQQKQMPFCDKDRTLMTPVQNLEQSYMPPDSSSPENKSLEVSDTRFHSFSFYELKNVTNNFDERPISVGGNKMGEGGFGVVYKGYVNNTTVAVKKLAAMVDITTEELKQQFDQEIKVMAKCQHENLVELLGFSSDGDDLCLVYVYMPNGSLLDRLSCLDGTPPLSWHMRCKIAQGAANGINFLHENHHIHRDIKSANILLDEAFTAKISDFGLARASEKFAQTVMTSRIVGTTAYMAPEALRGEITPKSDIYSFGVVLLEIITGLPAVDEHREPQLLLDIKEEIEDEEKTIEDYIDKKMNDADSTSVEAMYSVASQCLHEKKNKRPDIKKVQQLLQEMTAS

Target: IRAK4 (Homo sapiens (Human), UniProt Q9NWZ3)
Experiment: IRAK4 Inhibition Assay
Format: biochemical
Settings: ATP 500 μM; IRAK4 0.6 nM; 60 min at room temperature
Method: The assays were performed in U-bottom 384-well plates. […] The reaction was initiated by the combination of IRAK4 with substrates and test compounds. The reaction was incubated at room temperature for 60 min. and terminated by adding 45 μL of 35 mM EDTA to each sample. The reaction mixture was analyzed on the Caliper LABCHIP® 3000 (Caliper, Hopkinton, Mass.) by electrophoretic separation of the fluorescent substrate and phosphorylated product.

Row | SMILES | pIC50
1 | CC(C)(O)[C@H](F)CNC(=O)c1cnc(Nc2ccn3nccc3n2)cc1NC1CCOCC1F (stereo partly shown) [Example 270] | 8.03
2 | N#CCNC(=O)c1cnc(Nc2ccc3ncsc3c2)cc1NC1CCCC1 [Example 153] | 8.21
3 | CC(C)Nc1cc(Nc2ccc3ncsc3c2)ncc1C(=O)NC[C@@H](F)C(O)(C1CC1)C(F)(F)F (stereo partly shown) [Example 31] | 8.28
4 | CC(C)(O)[C@H](F)CNC(=O)c1cnc(Nc2ccn3nccc3n2)cc1NC1CCC1 [Example 241] | 8.39
5 | CC(C)Nc1cc(Nc2ncc3ncccc3n2)ncc1C(=O)NC[C@@H](F)C(C)(C)O [Example 370] | 8.39
6 | CC(C)Nc1cc(Nc2nc3ccnn3cc2F)ncc1C(=O)NCC(F)(F)C(C)(C)O [Example 522] | 8.03
7 | CC(C)(O)[C@H](F)CNC(=O)c1cnc(Nc2ccc3ncsc3c2)cc1NC1CCCC1O (stereo partly shown) [Example 335] | 8.39
8 | CC(C)Nc1cc(Nc2ccc3ncsc3c2)ncc1C(=O)N[C@H]1CCN(S(C)(=O)=O)C1 [Example 215] | 8.21
9 | Cc1cnc2ccc(Nc3cc(NC4CC4)c(C(=O)NC[C@@H](F)C(C)(C)O)cn3)nn12 [Example 276] | 8.15
10 | CC(C)CCNc1cc(Nc2ccc3ncsc3c2)ncc1C(=O)NC[C@@H](F)C(C)(C)O [Example 163] | 8.16
11 | CC(O)([C@H](F)CNC(=O)c1cnc(Nc2ccc3ncsc3c2)cc1NC1CCCC1F)C(F)(F)F (stereo in doubt) [Example 340] | 8.02
12 | CC(C)(O)[C@H](F)CNC(=O)c1cnc(Nc2nc3ccnn3cc2F)cc1NC1CCCC1O (stereo partly shown) [Example 464] | 8.02
13 | CC(O)([C@H](F)CNC(=O)c1cnc(Nc2ccc3ncsc3c2)cc1NC1CCCC1F)C(F)(F)F (stereo in doubt) [Example 339] | 7.93
14 | CC(C)(O)[C@H](F)CNC(=O)c1cnc(Nc2ccn3nccc3n2)cc1NC1CCOCC1F (stereo partly shown) [Example 271] | 8.37

Now those with a higher pIC50, led by results:

Row | pIC50 | SMILES
15 | 8.51 | CC(C)(O)[C@H](F)CNC(=O)c1cnc(Nc2nc3ccnn3cc2F)cc1NC1CCCC1F (stereo partly shown) [Example 463]
16 | 8.72 | CC(C)(O)[C@H](F)CNC(=O)c1cnc(Nc2ccn3nccc3n2)cc1NC1CCC(F)(F)C1 (stereo partly shown) [Example 242]
17 | 8.42 | CC(C)(O)[C@H](F)CNC(=O)c1cnc(Nc2nc3ccnn3cc2F)cc1NC1CCCC1F (stereo partly shown) [Example 472]
18 | 8.54 | CC(C)(O)[C@H](F)CNC(=O)c1cnc(Nc2ccn3nccc3n2)cc1NC1CCOCC1F (stereo partly shown) [Example 249]
19 | 8.57 | CC(C)(O)[C@H](F)CNC(=O)c1cnc(Nc2nc3ccnn3cc2F)cc1N[C@H]1CCC[C@@H]1O [Example 466]
20 | 8.74 | CC(C)(O)[C@H](F)CNC(=O)c1cnc(Nc2ccn3nccc3n2)cc1NC1CCC(F)(F)C1 (stereo partly shown) [Example 259]
21 | 8.48 | CC(O)([C@H](F)CNC(=O)c1cnc(Nc2ccc3ncsc3c2)cc1NC1CCCC1F)C(F)(F)F (stereo in doubt) [Example 342]
22 | 8.62 | CC(C)(O)[C@H](F)CNC(=O)c1cnc(Nc2nc3ccnn3cc2F)cc1NC1CCCC1F (stereo partly shown) [Example 471]
